The nature of experiment [1]: qHTS assay to identify small molecule antagonists of the estrogen receptor alpha (ER-alpha) signaling pathway - cell viability counter screen (AID 743074; calls by dose curve;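 note: HEK293 cells carrying ER-alpha-UAS-bla reporter stimulated with 17beta-estradiol; nearly all actives have a fitted effect of over 45% in size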; note: potency is the fitted concentration of half-maximal effect).
Experiment [2] can be described thus: qHTS assay to identify small molecule antagonists of the estrogen receptor alpha (ER-alpha) signaling pathway using the BG1 cell line - cell viability counter screen (AID 743081).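 Note: compound given together with 17beta-estradiol as the ER stimulus; nearly all actives have a fitted effect of over 45% in size.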 The note with it: BG1Luc4E2 viability, CellTiter-Fluor, 22 h. A general note: qHTS replaces the single test concentration by a dilution series.
The target of a further experiment is Aromatase (Homo sapiens) (UniProt P11511). The experiment in a line: qHTS assay to identify aromatase inhibitors (AID 743083). Note: nearly all actives have a fitted effect of over 55% in size. Note: potency is the fitted concentration of half-maximal effect.
A short description of experiment [3]: qHTS assay to identify aromatase inhibitors - cell viability counter screen (AID 743084).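 Note: cells stimulated with testosterone during compound exposure; nearly all actives have a fitted effect of over 55% in size.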
Experiment [4] is described as follows: qHTS assay to identify small molecule that activate the aryl hydrocarbon receptor (AhR) signaling pathway - cell viability counter screen (AID 743086).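 For viability change, negative = cytotoxic: HepG2 liver cells carrying the AhR DRE luciferase reporter.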 Note: nearly all actives have a fitted effect of over 45% in size. Note: potency is the fitted concentration of half-maximal effect. Summed up:
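HepG2-AhR-luc (HG2L7.5c1) cells, 4000/well, treated 24 h at 37 C with compound; viability measured as CellTiter-Fluor fluorescence after 30 min in the same wells as the luciferase read.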

Sequences of proteins named here, by UniProt entry; tags and fusion partners are left off.
UniProt P11511, whole entry: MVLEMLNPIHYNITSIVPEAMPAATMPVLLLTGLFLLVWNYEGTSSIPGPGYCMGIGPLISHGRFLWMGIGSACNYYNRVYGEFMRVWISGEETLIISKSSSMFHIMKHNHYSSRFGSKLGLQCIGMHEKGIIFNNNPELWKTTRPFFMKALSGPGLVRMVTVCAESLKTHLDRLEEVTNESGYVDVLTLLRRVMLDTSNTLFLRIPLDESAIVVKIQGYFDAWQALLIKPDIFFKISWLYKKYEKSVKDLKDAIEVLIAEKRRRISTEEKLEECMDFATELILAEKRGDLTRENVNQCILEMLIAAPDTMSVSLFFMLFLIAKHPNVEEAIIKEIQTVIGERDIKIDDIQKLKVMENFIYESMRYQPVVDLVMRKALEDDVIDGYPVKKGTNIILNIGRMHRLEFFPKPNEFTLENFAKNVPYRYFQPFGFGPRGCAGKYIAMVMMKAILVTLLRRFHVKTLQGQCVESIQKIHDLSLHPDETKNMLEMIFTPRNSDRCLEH
UniProt P03372, whole entry: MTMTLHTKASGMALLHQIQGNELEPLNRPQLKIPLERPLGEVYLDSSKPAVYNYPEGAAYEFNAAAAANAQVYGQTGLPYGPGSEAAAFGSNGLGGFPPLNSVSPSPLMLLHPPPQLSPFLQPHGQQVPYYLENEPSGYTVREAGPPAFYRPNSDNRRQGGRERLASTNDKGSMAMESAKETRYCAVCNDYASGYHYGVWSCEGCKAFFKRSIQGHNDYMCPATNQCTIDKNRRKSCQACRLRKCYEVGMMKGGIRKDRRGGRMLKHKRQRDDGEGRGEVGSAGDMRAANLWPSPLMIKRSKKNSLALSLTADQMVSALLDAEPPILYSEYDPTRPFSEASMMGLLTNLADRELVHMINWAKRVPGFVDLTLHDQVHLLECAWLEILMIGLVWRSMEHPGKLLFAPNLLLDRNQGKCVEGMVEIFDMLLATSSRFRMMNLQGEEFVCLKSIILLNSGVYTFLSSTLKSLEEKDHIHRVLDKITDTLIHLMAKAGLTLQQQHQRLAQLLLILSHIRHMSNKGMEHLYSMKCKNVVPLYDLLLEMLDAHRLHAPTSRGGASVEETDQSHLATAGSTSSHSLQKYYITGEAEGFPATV
UniProt P37231, whole entry: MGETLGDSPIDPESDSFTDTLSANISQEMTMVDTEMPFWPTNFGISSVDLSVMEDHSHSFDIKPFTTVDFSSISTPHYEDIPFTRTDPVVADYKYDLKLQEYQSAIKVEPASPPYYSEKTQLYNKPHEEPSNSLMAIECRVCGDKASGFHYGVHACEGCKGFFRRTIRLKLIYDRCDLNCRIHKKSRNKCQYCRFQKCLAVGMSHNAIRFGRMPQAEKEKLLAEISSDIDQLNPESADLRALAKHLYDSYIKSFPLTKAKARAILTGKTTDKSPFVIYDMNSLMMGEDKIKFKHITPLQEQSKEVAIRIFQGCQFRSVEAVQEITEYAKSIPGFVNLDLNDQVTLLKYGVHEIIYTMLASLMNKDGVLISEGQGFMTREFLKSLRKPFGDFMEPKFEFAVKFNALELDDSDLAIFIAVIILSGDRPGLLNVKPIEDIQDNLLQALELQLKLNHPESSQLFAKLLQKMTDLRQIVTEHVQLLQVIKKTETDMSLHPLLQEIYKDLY
UniProt Q03181, whole entry: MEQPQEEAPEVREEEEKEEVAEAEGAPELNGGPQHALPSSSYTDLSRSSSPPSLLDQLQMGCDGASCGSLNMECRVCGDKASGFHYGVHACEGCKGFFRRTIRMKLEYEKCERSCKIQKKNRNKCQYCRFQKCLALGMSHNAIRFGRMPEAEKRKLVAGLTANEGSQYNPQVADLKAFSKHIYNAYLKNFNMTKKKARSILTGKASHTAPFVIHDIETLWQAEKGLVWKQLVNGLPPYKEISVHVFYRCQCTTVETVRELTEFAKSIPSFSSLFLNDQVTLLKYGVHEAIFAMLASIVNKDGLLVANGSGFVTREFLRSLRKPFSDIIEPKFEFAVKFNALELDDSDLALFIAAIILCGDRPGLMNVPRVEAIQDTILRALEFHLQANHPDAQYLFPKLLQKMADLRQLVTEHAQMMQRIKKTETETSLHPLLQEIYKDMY

Experiment [5] can be described thus: qHTS assay to identify small molecule antagonists of the peroxisome proliferator-activated receptor gamma (PPARg) signaling pathway - cell viability counter screen (AID 743194). Note: nearly all actives have a fitted effect of over 55% in size. Particulars: PPARg-bla HEK293H viability, CellTiter-Glo luminescence, 17 h, co-treated with 50 nM rosiglitazone. The gist of the method:
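Cytotoxicity counter screen in PPARg-bla HEK293H cells, same wells as reporter assay. Compounds plus 50 nM rosiglitazone (final) for 17 h at 37 C, then viability read by CellTiter-Glo luminescence.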

The nature of experiment [6]: qHTS assay for small molecule activators of the heat shock response signaling pathway - cell viability counter screen (AID 743209). Note: nearly all actives have a fitted effect of over 50% in size. The note with it: HSE-bla HeLa viability, CellTiter-Glo luminescence, 5 h. Summed up:
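Cytotoxicity counter screen run in parallel with the HSE beta-lactamase reporter, using the same wells. HeLa HSE-bla cells received compound for 5 h at 37 C; ATP-based CellTiter-Glo luminescence was measured after 30 min at room temperature.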

Experiment [7] in a line: qHTS assay for small molecule activators of the heat shock response signaling pathway (AID 743210; active = well fitted activation curve with a large enough effect in the signal ratio in the repeat runs, with a control signal flat, not every such curve was filed as active; the % refers to the signal ratio;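 note: HeLa cells with beta-lactamase reporter driven by heat shock elements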). The note with it: HeLa HSE-bla reporter, beta-lactamase ratio, 5 h. The gist of the method:
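Beta-lactamase reporter read-out: FRET substrate fluorescence after 2.5 h at RT, following 5 h compound treatment at 37 C of HeLa cells carrying HSE-driven bla reporter; quantitative HTS format.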

The nature of experiment [8]: qHTS assay to identify small molecule agonists of the peroxisome proliferator-activated receptor delta (PPARd) signaling pathway - cell viability counter screen (AID 743211). Note: nearly all actives have a fitted effect of over 55% in size. The note with it: PPARd-bla HEK293H viability, CellTiter-Glo luminescence, 17 h. Summed up: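 PPARd-bla HEK293H cells (UAS-beta-lactamase reporter) were treated with compounds for 17 h at 37 C. Viability was then read in the same wells by CellTiter-Glo luminescence after 30 min at room temperature.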

Experiment [9] can be described thus: qHTS assay to identify small molecule antagonists of the peroxisome proliferator-activated receptor delta (PPARd) signaling pathway - cell viability counter screen (AID 743213). Note: nearly all actives have a fitted effect of over 50% in size. Particulars: PPARd-bla HEK293H viability, CellTiter-Glo luminescence, 17 h. Summed up: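 HEK293H PPARd UAS-bla cells, 5 h pre-incubation, compound + L165041 300 nM final, 17 h 37 C; B/G FRET substrate 2 h RT; then CellTiter-Glo 30 min RT, luminescence.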

Experiment [10] has as its target Estrogen receptor (Homo sapiens) (UniProt P03372). Kind of experiment: qHTS assay to identify small molecule agonists of the estrogen receptor alpha (ER-alpha) signaling pathway (AID 743075; calls by dose curve;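 note: HEK293 GripTite cells with ER-alpha and UAS-driven beta-lactamase reporter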). The note with it: HEK293 ER-alpha-UAS-bla, beta-lactamase FRET ratio, 18 h.
Experiment [11] shares this target. Kind of experiment: qHTS assay to identify small molecule agonists of the estrogen receptor alpha (ER-alpha) signaling pathway using the BG1 cell line (AID 743079). Note: nearly all actives have a fitted effect of over 20% in size. Particulars: BG1Luc4E2 cells, ERE-luciferase agonist, 22 h.
Experiment [12] can be described thus: qHTS assay to identify small molecule antagonists of the estrogen receptor alpha (ER-alpha) signaling pathway using the BG1 cell line (AID 743080; calls by dose curve;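 note: BG1 cells stimulated with 17beta-estradiol alongside compound; nearly all actives have a fitted effect of over 25% in size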). The note with it: BG1Luc4E2 ERE-luciferase antagonist mode, luminescence. The gist of the method: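 Luminescence from a 4×ERE-luciferase reporter in BG1-Luc-4E2 cells served as read-out. Cells, pre-cultured 5 days in stripped-serum phenol-red-free medium, were exposed to compound with 17beta-estradiol co-stimulation for 21.5 h at 37 C.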

Experiment [13] deals with Peroxisome proliferator-activated receptor gamma (Homo sapiens) (UniProt P37231). Kind of experiment: qHTS assay to identify small molecule agonists of the peroxisome proliferator-activated receptor gamma (PPARg) signaling pathway (AID 743094; active = well fitted activation curve with a large enough effect in the signal ratio in the repeat runs, not every such curve was filed as active; the % refers to the signal ratio). Particulars: HEK293H PPARg-UAS-bla, beta-lactamase FRET ratio, 17 h. The gist of the method: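 Cells from the PPARg UAS-bla HEK293H line are plated and incubated 5 h at 37C. Compounds in DMSO are pinned in and left 17 h at 37C. LiveBLAzer B/G substrate is then added for 1 h at room temperature before fluorescence is measured.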

Experiment [14] has the same target. The experiment in a line: qHTS assay to identify small molecule antagonists of the peroxisome proliferator-activated receptor gamma (PPARg) signaling pathway (AID 743191; calls by dose curve; note: nearly all actives have a fitted effect of over 30% in size). The note with it: HEK293H PPARg-UAS-bla, beta-lactamase ratio, antagonist, 17 h; at 62.6 µM (top of the series) unless noted. Summed up:
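GeneBLAzer PPARg UAS-bla HEK293H cells, 5 h post-plating, exposed to compounds 17 h at 37C. LiveBLAzer B/G FRET substrate added for 1 h at room temperature; beta-lactamase reporter read by fluorescence intensity.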

Experiment [15] in a line: qHTS assay for small molecule agonists of the antioxidant response element (ARE) signaling pathway (AID 743202; active = well fitted activation curve with a large enough effect in the signal ratio in the repeat runs, not every such curve was filed as active; the % refers to the signal ratio). The note with it: HepG2 ARE-bla reporter, beta-lactamase FRET, 16 h. The gist of the method: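 HepG2 ARE-bla reporter line, 2,000 cells/well; 5 h preincubation 37 C/5% CO2; compound (DMSO) 16 h 37 C; B/G FRET substrate 2 h RT; fluorescence intensity.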
Experiment [16] in a line: qHTS assay for small molecule agonists of the antioxidant response element (ARE) signaling pathway - cell viability counter screen (AID 743203; calls by dose curve; note: nearly all actives have a fitted effect of over 55% in size). The note with it: ARE-bla HepG2 viability, CellTiter-Glo luminescence, 16 h. The gist of the method: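 Cytotoxicity was tested in parallel with the ARE reporter screen. ARE-bla HepG2 cells were exposed to compounds for 16 hrs, and viability was taken from CellTiter-Glo luminescence.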

The target in experiment [17] is Peroxisome proliferator-activated receptor delta (Homo sapiens) (UniProt Q03181). Kind of experiment: qHTS assay to identify small molecule agonists of the peroxisome proliferator-activated receptor delta (PPARd) signaling pathway (AID 743212; calls by dose curve). Particulars: HEK293H PPARd-UAS-bla, beta-lactamase FRET ratio, 17 h. Summed up: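 Read-out: beta-lactamase FRET fluorescence after 2 h room-temperature incubation with LiveBLAzer B/G substrate. Cells were HEK293H carrying a UAS-bla reporter for PPARd, treated at 37 C with DMSO-dissolved compounds.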

Experiment [18] has the same target. Kind of experiment: qHTS assay to identify small molecule antagonists of the peroxisome proliferator-activated receptor delta (PPARd) signaling pathway (AID 743215; active = well fitted inhibition curve with a large enough effect in the signal ratio in the repeat runs, not every such curve was filed as active; the % refers to the signal ratio;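 note: cells stimulated with agonist L165041 at 300 nM final during compound exposure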). Particulars: HEK293H PPARd-UAS-bla, beta-lactamase FRET ratio, antagonist, 17 h. Summed up:
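Cells: HEK293H with a UAS-driven beta-lactamase reporter responsive to PPARd. Compounds were co-added with L165041 (300 nM, final) and incubated 17 h at 37 C before a 2 h room-temperature FRET substrate step and fluorescence reading.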

“And” between values parts separate entries of the source, which are not always exact repeats. Equal entries are not always repeated. The list shows a part of the results, in another mix than the full data. Inconclusive results are not listed. Some structures have more than one record in an assay (separate samples or runs), and their calls can disagree. The source made the active and inactive calls. Unless noted, calls come from the whole dose curve; as a rule, active = well fitted curve in the direction sought with a large enough effect in the repeat runs; inconclusive = weak or mixed curves; inactive = no such curve, though single readings can be large; an effect the other way counts as inactive or inconclusive.
% is set by controls: 0 for no effect and ±100 for the full control effect.

As for `O=[N+]([O-])c1ccccc1[N+](=O)[O-]`, the Potency entry in experiment [1] and in [3] was “inactive” throughout. Besides, the activity change, negative = cytotoxicity is inactive: -1.52% in experiment [2] (at 70.3 µM (top of the series)); inactive: -26.6% in [2] (at 95 µM (top of the series)); inactive: -25.4% in [5] (at 62.6 µM (top of the series)); inactive: -4.21% in experiment [5] (at 81.1 µM (top of the series)); inactive: 5% in experiment [6] (at 62.6 µM (top of the series)); inactive: -2.26% in experiment [6] (at 81.1 µM (top of the series)). Further, the activity change, negative = cytotoxicity in experiment [8] (at 62.6 µM (top of the series)) was inactive: -1.56%; in experiment [8] (at 81.1 µM (top of the series)), inactive: -5.57%. Further, the Potency in the experiment with Aromatase (Homo sapiens) is active: 70.3 µM and inactive; in [4] it was active: 62.7 µM and inactive. Moreover, the activation in experiment [7] (at 62.6 µM (top of the series)) is inactive: 2.43%. Also, the viability change, negative = cytotoxic in experiment [9] (at 62 µM (top of the series)) was inactive: 5.13%; in [9] (at 80.4 µM (top of the series)), inactive: -18.7%.
Regarding `ClCCOP(OCCCl)OCCCl`, the Potency entry in experiment [1] was “inactive and active: 21.9 µM”. Also, the activation in experiment [10] (at 70.1 µM (top of the series)) was inactive: -1.23%; in experiment [10] (at 79.1 µM (top of the series)), inactive: -0.215%; in [11] (at 70.3 µM (top of the series)), inactive: 8.91%; in [11] (at 95 µM (top of the series)) it was inactive: -2.77%; in [13] (at 57 µM (top of the series)) it was inactive: 0.173%; in [13] (at 78.9 µM (top of the series)), inactive: -0.0589%. For the same molecule, the activation in [15] (at 73.3 µM (top of the series)) is inactive: -1.05%; in experiment [15] (at 94.8 µM (top of the series)) it was inactive: -1.66%; in experiment [7] (at 62.6 µM (top of the series)) it was inactive: 0.296%; in experiment [7] (at 81.1 µM (top of the series)) it was inactive: -0.657%; in experiment [17] (at 62.6 µM (top of the series)), inactive: 0.655%; in [17] (at 81.1 µM (top of the series)), inactive: -0.769%. The activity change, negative = inhibition was inactive: 3.58% in experiment [12] (at 70.3 µM (top of the series)) and inactive: 3.62% in [12] (at 95 µM (top of the series)). For the same molecule, the activity change, negative = cytotoxicity in [2] (at 70.3 µM (top of the series)) is inactive: 1.01%; in experiment [2] (at 95 µM (top of the series)), inactive: -13.5%; in experiment [5] (at 62.6 µM (top of the series)), inactive: 5.82%; in [5] (at 81.1 µM (top of the series)), inactive: 16.8%; in [6] (at 62.6 µM (top of the series)), inactive: 0.645%; in experiment [6] (at 81.1 µM (top of the series)) it was inactive: -1.6%. For the same molecule, the activity change, negative = cytotoxicity in [8] (at 62.6 µM (top of the series)) is inactive: -1.02%; in experiment [8] (at 81.1 µM (top of the series)) it was inactive: 15.4%. Further, the Potency result (in the experiment with Aromatase (Homo sapiens); in experiment [3]; in experiment [4]) was “inactive” throughout. In addition, the ratio activity, negative = inhibition was inactive: 4.02% [at 81.1 µM] in experiment [14], inactive: 11.2% in experiment [18] (at 62 µM (top of the series)) and inactive: 0.55% in experiment [18] (at 80.4 µM (top of the series)). For the same molecule, the viability change, negative = cytotoxic in experiment [16] (at 73.3 µM (top of the series)) is inactive: 11.4%; in experiment [16] (at 94.8 µM (top of the series)), inactive: -1.2%; in [9] (at 62 µM (top of the series)), inactive: 9.56%; in [9] (at 80.4 µM (top of the series)) it was inactive: 0.58%.

(Values after PubChem BioAssay (Tox21).)
